Values of other authors in US20240058336A1, “DOSING OF FEDRATINIB” (IMPACT BIOMEDICINES, INC., priority 2020, published 2024).
Where a name gives a salt, the structure may show the parent alone.

Amino acid sequences for entries named in this document (tags omitted).
UniProt O60674, whole entry V617F: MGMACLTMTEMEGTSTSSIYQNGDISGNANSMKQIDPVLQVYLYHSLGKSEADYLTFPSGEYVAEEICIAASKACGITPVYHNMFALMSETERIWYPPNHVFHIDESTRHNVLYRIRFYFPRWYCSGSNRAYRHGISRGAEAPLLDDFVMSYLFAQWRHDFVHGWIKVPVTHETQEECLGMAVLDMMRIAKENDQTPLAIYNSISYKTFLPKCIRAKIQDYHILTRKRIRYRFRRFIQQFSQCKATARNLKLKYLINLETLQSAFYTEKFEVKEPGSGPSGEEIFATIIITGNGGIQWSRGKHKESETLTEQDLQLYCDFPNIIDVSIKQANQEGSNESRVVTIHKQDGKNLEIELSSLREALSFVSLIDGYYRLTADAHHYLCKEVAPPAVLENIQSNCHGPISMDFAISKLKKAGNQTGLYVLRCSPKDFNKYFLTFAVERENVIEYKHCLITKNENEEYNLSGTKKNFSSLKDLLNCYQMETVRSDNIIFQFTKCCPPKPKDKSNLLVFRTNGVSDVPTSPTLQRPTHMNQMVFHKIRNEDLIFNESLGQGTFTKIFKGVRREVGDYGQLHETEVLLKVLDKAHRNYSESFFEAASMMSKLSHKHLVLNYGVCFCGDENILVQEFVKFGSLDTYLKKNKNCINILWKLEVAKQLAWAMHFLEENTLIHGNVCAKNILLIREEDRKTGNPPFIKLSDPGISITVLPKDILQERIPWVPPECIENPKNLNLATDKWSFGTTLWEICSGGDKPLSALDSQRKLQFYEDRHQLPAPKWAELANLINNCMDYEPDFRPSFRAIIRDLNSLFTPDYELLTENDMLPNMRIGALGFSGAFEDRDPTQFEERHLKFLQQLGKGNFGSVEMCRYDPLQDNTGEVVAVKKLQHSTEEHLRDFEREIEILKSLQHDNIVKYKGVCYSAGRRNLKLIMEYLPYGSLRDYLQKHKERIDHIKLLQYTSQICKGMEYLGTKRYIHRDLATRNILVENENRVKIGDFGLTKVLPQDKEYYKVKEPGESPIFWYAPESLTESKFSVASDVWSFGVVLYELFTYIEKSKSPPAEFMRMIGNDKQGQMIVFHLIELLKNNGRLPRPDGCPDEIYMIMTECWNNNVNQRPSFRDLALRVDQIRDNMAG

Key:
JAK2 wild-type (WT) = JAK2 wild-type (WT) (Homo sapiens, UniProt O60674); conditions: cited from earlier work
[1] = target: activated mutant JAK2V617F (Homo sapiens, UniProt O60674, V617F); conditions: cited from earlier work

## Cc1cnc(Nc2ccc(OCCN3CCCC3)cc2)nc1Nc1cccc(S(=O)(=O)NC(C)(C)C)c1 [fedratinib, N-tert-butyl-3-[(5-methyl-2-{[4-(2-pyrrolidin-1-ylethoxy)phenyl]amino}pyrimidin-4-yl)amino]benzenesulfonamide dihydrochloride monohydrate]
JAK2 wild-type (WT); JAK2 versus JAK1, JAK3, TYK2
  kinase selectivity: selective for JAK2 over JAK1, JAK3 and tyrosine kinase 2 (TYK2)
JAK2 wild-type (WT)
  inhibition of JAK2 wild-type: inhibits
[1]
  inhibition of JAK2V617F: inhibits
